These results are taken from paper PMC10626537, “Pharmacokinetic and pharmacodynamic studies of nicotine in rat brain: a simultaneous investigation of nicotine metabolites and the release of neurotransmitters in vivo” (Frontiers in Chemistry, 2023).

A short description of this data set: Online brain microdialysis UHPLC-HRMS/MS pharmacokinetics of Nic and its main metabolites in rat NAc after single Nic injection. The format is in vivo. On the set-up: AUC0–360 min: unit not given here. The following applies: for AUC0–360 min: rat NAc dialysate, Nic 2 mg kg^-1 ip single injection, two-compartmental model; for C max / CL/F / MRT / t 1/2z / t max: rat NAc. On the procedure:
To inhibit the main Nic metabolic enzyme CYP2B in the brain, rats received intraperitoneal injections of proadifen (50 mg kg^−1·day^−1, 4 d) ([Song et al., 2012]). Control animals were pretreated with saline using the same protocol. All the rats were sacrificed by cardiac perfusion after microdialysis sampling. The brain tissues were separated and divided into four parts (cerebrum, cerebellum, diencephalon, and brainstem). The CYP2B activity in different rat brain regions was determined following the instructions of the GENMED CYP2B1 activity fluorescence quantitative detection kit (GENMED SCIENTIFICS INC. U.S.A, GMS18019.1).
The mass spectrometer was operated in positive ionization mode. […] The normalized collision energy was set at 10%.

Setting [1] is: Nic 2 mg kg^-1 ip, Prodifine (proadifen) pretreated.
Where [2] appears, read: Nic 2 mg kg^-1 ip, saline-pretreated.

What is called CL/F is clearance divided by bioavailability, as obtained after extravascular dosing. Broadly, the MRT is a mean duration of stay, worked out from the concentration-time curve.

(R, S)- nornicotine [NNic]: the “AUC0–360 min” value (Prodifine (proadifen 50 mg kg^-1 d^-1 ip, 4 days) pretreated) is listed as 5.9. For the same substance, the “AUC0–360 min” value (saline-pretreated) came to 37.4. Under setting [1], the C max is 23.5 ng/mL, the CL/F turned out to be 7.0 mL/min, the mean residence time MRT worked out at 2.99 h and the “t 1/2z” value was 2.782 h. Under setting [1], the t max is 2 h. Besides, under setting [2], the C max was 160.4 ng/mL, the CL/F worked out at 2.0 mL/min, the MRT was 2.998 h and the “t 1/2z” value turned out to be 1.932 h. For the same substance, the t max under setting [2] was found to be 2.83 h. The “decrease of C max (level) of Nic metabolite after CYP2B1 inhibition compared with control rats” value (rat brain, Nic 2 mg kg^-1 ip, proadifen-pretreated vs saline control) amounted to 85.3%.
